As for S-allyl cysteine sulfoxide [alliin], the lipid solubility result is on record as “capability to dissolve in lipids”.
